Values of other authors as cited in patent US11241410B2, “Method and compound for the treatment of covid-19” (priority 2020, dated 2022).

Target: T1, SARS-CoV-2 main protease (Severe acute respiratory syndrome coronavirus 2, UniProt P0DTD1)
T1 construct: also MProtease (SARS-CoV-2 main protease)
Details: auto dock; cited from earlier work

Row | SMILES | Dissociation Constant | SMINA score | Vina score
1 | O=C1CCC(N2C(=O)c3ccccc3C2=O)C(=O)N1 (stereo not drawn) [Thalidomide] | 7.9E−06 | −6.3 | −7.0
2 | NC(=O)c1ncn([C@@H]2O[C@H](CO)[C@@H](O)[C@H]2O)n1 [Ribavirin] | 1.6E−05 | −6.6 | −6.3
